Only a part is listed here, and it is no random draw. Results filed as inconclusive are left out. Active and inactive are the calls of the source. Calls come from the whole dose curve; as a rule, active = well fitted inhibition curve with a large enough effect; inconclusive = small, poorly fitted or top-dose-only effect; inactive = no such curve, though single readings can be large or run the other way.
Molecular target: Lysine-specific demethylase 5B (Homo sapiens) (UniProt Q9UGL1)
Assay: Primary screen for KDM5B Histone Demethylases FDH-coupled qHTS; note: 0% is about no effect; nearly all actives have a fitted effect of over 70% in size
Settings: FDH-coupled NADH fluorescence (FDH is formaldehyde dehydrogenase); at 57.7 µM (top of the series)
Description: Assay Submitter (PI): Qin Yan, Ph.D. (Yale University) and Xiaodong Cheng, Ph.D. (MD Anderson) This project was funded as part of the NCI NEXT Program and Chemical Biology Consortium (CBC) The histone demethylases, KDM5A and KDM5B catalyze the demethylation of lysine 4 on histone H3 (H3K4me3/2). They are overexpressed in a variety of cancers and have been implicated in cancer cell growth, metastasis, drug resistance, and tumor growth. KDM5A is amplified and overexpressed in breast and gastric cancer; and is translocated in leukemia. While KDM5B is highly expressed in human mammary tumors and breast cancer cell lines, but not in normal adult breast tissue. Moreover, knockdown of KDM5B leads to upregulation of tumor suppressor genes, including BRCA1. The goal of this project is to employ qHTS to identify selective small molecule inhibitors of KDM5A/B demethylase activity to better understand the role of KDM5 in cancer and to develop novel therapies. We employed an FDH-coupled assay previously reported by Sakurai et al. to monitor in vitro KDM5 demethylase activity. Compounds showing dose response inhibition are re-acquired, validated, and tested for non-specific interference with the formaldehyde dehydrogenase (FDH) counterscreen. True inhibitors are validated using an AlphaLisa secondary screen, which employs an H3K4(me2-1)-specific antibody to monitor demethylation of a biotin-tagged H3K4(me3) peptide substrate. Inhibitors are profiled against KDM4A and KDM6A AlphaLisa counterscreens to determine level of demethylase specificity; and against the TruHits counterscreen to eliminate non-specific inhibitory activity on the AlphaLISA detection method. Selective inhibitors identified from the primary and secondary screening are tested in cells using immunofluorescence to monitor global H3K4 tri-methylation as a measure of KDM5A/B inhibition. Early Translation Branch (ETB) National Center for Advancing Translational Sciences (NCATS), Rockville, MD National Institute of Health (NIH), Bethesda, Maryland [1] Sakurai, M et al. A miniaturized screen for inhibitors of Jumonji histone demethylases. Mol Biosyst. 2010 Feb;6(2):357-64. doi: 10.1039/b912993f. Epub 2009 Oct 8.
Materials: 1536-well Black, solid bottom, medium binding assay plate is purchased from Greiner Bio-one. The enzymes (KDM5B) and substrate (H3K4me3/2) are provided by the principal investigators. The buffer for this assay is composed of 50mM HEPES at pH 7.5 with 0.01% Tween-20. FDH coupled Demethylase qHTS protocol: Three microliter enzyme mix (buffer + 200nM KDM5BDeltaAP final concentration) is dispensed into the assay plate using the BioRAPTR Flying Reagent Dispenser (FRD; […]). Compound (at various final concentration) and control solution is pin transferred to the assay plate using the Kalypsys 1536-pin tool apparatus. The assay plate is incubated for 10 min at room temperature followed by addition of 1uL substrate mix (buffer + 100uM ascorbic acid, 50uM ferrous ammonium sulfate, 12.5uM H3K4Me3, 25uM a-ketoglutarate, 0.25 mM NAD+, 0.25 U/mL formaldehyde dehydrogenase using the FRD yielding a total reaction volume of 4 uL. Initial fluorescence (Read1) is detected using the PerkinElmer ViewLux plate reader equipped with 340 nm excitation and 450 nm emission filters. The final fluorescence (Read2) signal is obtained after 30 min of room temperature incubation. Delta RFU is calculated (Read2 - Read1) and is used to generated dose response curves.

By UniProt entry, the sequences of proteins in these tests, tags left out. Where a name states a change or a piece, a line headed by the entry shows the natural chain unless it says otherwise.
UniProt Q9UGL1: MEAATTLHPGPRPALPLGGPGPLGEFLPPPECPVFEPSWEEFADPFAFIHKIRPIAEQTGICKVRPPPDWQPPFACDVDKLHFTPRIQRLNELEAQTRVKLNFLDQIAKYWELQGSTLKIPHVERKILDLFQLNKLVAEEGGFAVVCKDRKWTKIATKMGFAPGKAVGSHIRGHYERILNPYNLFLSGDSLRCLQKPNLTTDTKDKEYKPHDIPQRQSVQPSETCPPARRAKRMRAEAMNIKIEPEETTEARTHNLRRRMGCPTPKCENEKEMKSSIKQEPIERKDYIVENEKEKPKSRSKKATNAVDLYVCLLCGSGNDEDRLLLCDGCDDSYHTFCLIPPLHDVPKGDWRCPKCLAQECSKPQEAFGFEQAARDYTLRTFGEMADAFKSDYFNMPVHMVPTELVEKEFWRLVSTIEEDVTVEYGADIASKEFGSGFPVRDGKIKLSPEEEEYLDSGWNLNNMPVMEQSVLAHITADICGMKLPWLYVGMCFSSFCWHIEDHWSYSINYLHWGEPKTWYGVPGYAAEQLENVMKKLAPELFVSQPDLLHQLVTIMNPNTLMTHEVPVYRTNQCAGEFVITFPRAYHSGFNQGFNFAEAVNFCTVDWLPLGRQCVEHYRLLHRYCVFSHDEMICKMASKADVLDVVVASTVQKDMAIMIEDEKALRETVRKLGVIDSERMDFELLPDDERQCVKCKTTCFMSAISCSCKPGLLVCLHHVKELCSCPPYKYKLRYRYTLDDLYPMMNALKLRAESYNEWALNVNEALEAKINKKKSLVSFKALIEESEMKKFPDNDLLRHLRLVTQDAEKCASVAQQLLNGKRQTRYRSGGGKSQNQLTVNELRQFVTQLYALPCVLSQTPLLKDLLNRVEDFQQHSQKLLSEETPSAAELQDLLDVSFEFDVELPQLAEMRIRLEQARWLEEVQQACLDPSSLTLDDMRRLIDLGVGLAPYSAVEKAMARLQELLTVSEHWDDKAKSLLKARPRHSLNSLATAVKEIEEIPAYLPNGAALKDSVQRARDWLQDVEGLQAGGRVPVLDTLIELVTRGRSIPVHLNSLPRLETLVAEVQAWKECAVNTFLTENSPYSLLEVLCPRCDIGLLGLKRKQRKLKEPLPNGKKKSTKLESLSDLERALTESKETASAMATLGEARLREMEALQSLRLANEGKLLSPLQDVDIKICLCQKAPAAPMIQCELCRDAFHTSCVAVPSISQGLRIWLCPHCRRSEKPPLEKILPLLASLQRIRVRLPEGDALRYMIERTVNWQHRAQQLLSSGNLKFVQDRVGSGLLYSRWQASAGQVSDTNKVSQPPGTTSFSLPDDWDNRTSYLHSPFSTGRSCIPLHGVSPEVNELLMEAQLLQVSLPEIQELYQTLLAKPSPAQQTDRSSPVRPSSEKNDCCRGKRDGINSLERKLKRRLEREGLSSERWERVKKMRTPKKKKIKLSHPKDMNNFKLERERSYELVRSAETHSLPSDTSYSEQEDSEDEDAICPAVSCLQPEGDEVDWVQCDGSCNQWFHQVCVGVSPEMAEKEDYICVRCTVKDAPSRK

**Q.** How did the activity change, negative = inhibition turn out when `Nc1ccc([As](=O)(O)c2ccc(N)cc2)cc1` was run?
**A.** The activity change, negative = inhibition was inactive: -12.8%.

**Q.** For `CC(C)(C)C(=O)NC(Sc1ccncn1)C(Cl)(Cl)Cl` (stereo not given), which activity change, negative = inhibition is on record?
**A.** Its activity change, negative = inhibition is inactive: -12.9%.

**Q.** How did the activity change, negative = inhibition turn out when `BrCCNCCc1ccncc1` was run?
**A.** The activity change, negative = inhibition was inactive: -11.9%.

**Q.** `CCn1nc(C(=O)NCC2(N3CCCCC3)CCCCC2)c2ccccc2c1=O` was tested. Which activity change, negative = inhibition did it give?
**A.** The activity change, negative = inhibition was inactive: -3.71%.

**Q.** How did the activity change, negative = inhibition turn out when `CN(C)C(=O)Oc1noc2ccccc12` was run?
**A.** Its activity change, negative = inhibition is inactive: 32.4%.

**Q.** For `Nc1ccc([As](=O)(O)c2ccc([N+](=O)[O-])cc2)cc1`, which activity change, negative = inhibition is on record?
**A.** Its activity change, negative = inhibition is inactive: 14.9%.

**Q.** How did the activity change, negative = inhibition turn out when `CN(C)C1(CNC(=O)c2ccc(Cl)c(S(N)(=O)=O)c2)CCCCC1` was run?
**A.** The activity change, negative = inhibition was inactive: 24.9%.

**Q.** `O=P(Nc1nc2ccccc2s1)(c1ccccc1)c1ccccc1` was tested. Which activity change, negative = inhibition did it give?
**A.** The activity change, negative = inhibition was inactive: 13.9%.

**Q.** `ClCCNC1C2CC3CC(C2)CC1C3` (stereo not given) was tested. Which activity change, negative = inhibition did it give?
**A.** The activity change, negative = inhibition was inactive: -24.6%.

**Q.** For `CCOP(=O)(NC(=NC(C)c1ccccc1)NC(C)c1ccccc1)OCC` (stereo not given), which activity change, negative = inhibition is on record?
**A.** Its activity change, negative = inhibition is inactive: 31.4%.

**Q.** With `Nc1cccc([As](=O)(O)c2ccccc2)c1` as the compound, how does the activity change, negative = inhibition read?
**A.** Its activity change, negative = inhibition is inactive: 16.8%.

**Q.** For `Cc1ccc(C(=O)NC(Sc2ccccc2)C(Cl)(Cl)Cl)cc1` (stereo not given), which activity change, negative = inhibition is on record?
**A.** Its activity change, negative = inhibition is inactive: -3.7%.

**Q.** Which activity change, negative = inhibition does the source give for `Cc1ccc(C(=O)NC(Sc2ccc(Cl)cc2)C(Cl)(Cl)Cl)cc1` (stereo not given) here?
**A.** Its activity change, negative = inhibition is inactive: -20.1%.

**Q.** For `CCCOP(=S)(Nc1nc(N)cc(=O)[nH]1)OCCC`, which activity change, negative = inhibition is on record?
**A.** The activity change, negative = inhibition was inactive: 18.8%.

**Q.** Which activity change, negative = inhibition does the source give for `NNc1ccc([N+](=O)[O-])cc1[N+](=O)[O-]` here?
**A.** The activity change, negative = inhibition was inactive: -16%.

**Q.** With `CS(=O)(=O)c1ccc(Cl)c(NC(=O)COC(=O)C(O)(c2ccccc2)c2ccccc2)c1` as the compound, how does the activity change, negative = inhibition read?
**A.** The activity change, negative = inhibition was inactive: 7.31%.

**Q.** Which activity change, negative = inhibition does the source give for `Fc1ccc(NC2=NCC(CI)S2)c(F)c1` (stereo not given) here?
**A.** Its activity change, negative = inhibition is inactive: -6.4%.

**Q.** Which activity change, negative = inhibition does the source give for `BrCC1CN=C(Nc2ccccc2)S1` (stereo not given) here?
**A.** The activity change, negative = inhibition was inactive: 9.96%.

**Q.** Which activity change, negative = inhibition does the source give for `O=C(NC(Sc1ccc(Cl)cc1)C(Cl)(Cl)Cl)c1ccccc1` (stereo not given) here?
**A.** Its activity change, negative = inhibition is inactive: -16.2%.

**Q.** Which activity change, negative = inhibition does the source give for `Fc1ccc(CNC2=NCC(CBr)S2)cc1` (stereo not given) here?
**A.** The activity change, negative = inhibition was inactive: 10.6%.

**Q.** How did the activity change, negative = inhibition turn out when `O=C(NC(Sc1ccccc1)C(Cl)(Cl)Cl)c1ccc(Cl)cc1` (stereo not given) was run?
**A.** Its activity change, negative = inhibition is inactive: 11%.

**Q.** How did the activity change, negative = inhibition turn out when `O=C(/C=C/c1ccccc1)NC(Sc1ccc(Cl)cc1)C(Cl)(Cl)Cl` (stereo not given) was run?
**A.** The activity change, negative = inhibition was inactive: -14.5%.

**Q.** Which activity change, negative = inhibition does the source give for `Clc1cccc(NC2=NCC(CBr)S2)c1` (stereo not given) here?
**A.** Its activity change, negative = inhibition is inactive: -0.61%.

**Q.** With `O=C(Nc1ccncc1[N+](=O)[O-])c1ccc([N+](=O)[O-])cc1[N+](=O)[O-]` as the compound, how does the activity change, negative = inhibition read?
**A.** Its activity change, negative = inhibition is inactive: 19.6%.

**Q.** How did the activity change, negative = inhibition turn out when `Cc1cccc(C(=O)NC(Sc2ccccc2)C(Cl)(Cl)Cl)c1` (stereo not given) was run?
**A.** Its activity change, negative = inhibition is inactive: 24.4%.

From PubChem BioAssay AID1347165 (National Center for Advancing Translational Sciences (NCATS), 2019)
